## Binding of CDR-mutated scFvs to a peptide of the spike HR2 region

Source: Engelhart et al. 2022 (doi:10.1038/s41597-022-01779-4), MIT Lincoln Laboratory and A-Alpha Bio; data file from the FLAb repository.

Target: peptide PDVDLGDISGINAS, taken from heptad repeat 2 (HR2) of SARS-CoV-2 spike.

Parent: Ab-14, a human scFv built as VH, a 15-residue (Gly4Ser)3 linker, VL. Only the CDRs of the light chain vary.
VH: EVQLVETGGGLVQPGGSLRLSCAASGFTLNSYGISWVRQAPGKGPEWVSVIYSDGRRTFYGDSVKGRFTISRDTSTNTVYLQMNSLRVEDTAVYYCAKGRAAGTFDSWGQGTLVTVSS
VL: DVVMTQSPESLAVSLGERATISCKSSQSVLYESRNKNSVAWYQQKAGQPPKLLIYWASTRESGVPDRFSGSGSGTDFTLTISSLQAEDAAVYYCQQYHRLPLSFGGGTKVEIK

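Phage display of a naive human antibody library on the peptide gave the parent. Library AAYL50 holds single substitutions and randomly drawn double and triple substitutions in the CDRs. In AlphaSeq, yeast of one mating type display the scFv and yeast of the other type display the target. Binding brings cells together so that they mate, and sequencing counts the barcode pairs among the diploids. Scores were corrected for input abundance and mapped to Kd with protein pairs of known affinity run in the same pool. Each pool was mated in three replicate cultures.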

Each variant is given by its three light chain CDRs, as the data file delimits them; those of the parent are KSSQSVLYESRNKNSVA, WASTRES, QQYHRLPLS. This list gathers variants with a substitution at W56 (VL, numbered from residue 1). The Kd shown is the geometric mean over detected replicates; a lower Kd is a better binder. Where no diploid with the target was found in any replicate, the entry reads "nd": below detection, most likely a poor binder, though not proof of it. In this assay the parent's reference entry averaged 4.4 nM; its copy inside this library read 48 nM.

* KSSQNVLYESRNKNSVA / RASTRES / YQYHRLPLS: 4.5 µM (1 of 3 replicates; controls 2 of 9)
* KSSQSVLYESRNKNHVA / DASTRES / QQYHRLPLS: 1.3 nM (3 of 3 replicates; controls 6 of 9)
* KSSQSVLYESRNKNSVA / EADTRES / QQYHRLPLS: 1.0 nM (3 of 3 replicates; controls 0 of 9)
* KSSQSELYESRNKNSVA / TASTRES / QQYHRLPLS: 1.6 nM (3 of 3 replicates; controls 2 of 9)
* KSSQSVLYEIRNKNSVA / DASTRES / QQYHRKPLS: 30 µM (1 of 3 replicates; controls 1 of 9)
* KSSQSVLYYSRNKNSVA / DAKTRES / QQYHRLPLS: 1.1 nM (3 of 3 replicates; controls 2 of 9)
* KSMQSVLYESDNKNSVA / GASTRES / QQYHRLPLS: 20 µM (1 of 3 replicates; controls 1 of 9)
* KSSQAVLYESRNKNSVA / EASTRES / QYYHRLPLS: 1.1 nM (3 of 3 replicates; controls 6 of 9)
* KSSQSVPYESRNKNSVA / YASRRES / QQYHRLPLS: 150 nM (3 of 3 replicates; controls 5 of 9)
* KSSCSVLYESRNKNSVA / LASTRES / QQYHRLPLS: 37 nM (3 of 3 replicates; controls 1 of 9)
* KSLQSVFYESRNKNSVA / RASTRES / QQYHRLPLS: 3.0 nM (3 of 3 replicates; controls 6 of 9)
* KSSQSVLYESRNKNSVA / EASTEES / QQYHRHPLS: 18 µM (2 of 3 replicates; controls 1 of 9)
* KSSQSVLYESRNKNSVA / YASGRES / QQYIRLPLS: 1.5 µM (3 of 3 replicates; controls 2 of 9)
* KSSQSVLYESRNKNSVA / KASTRES / QQYHRLPNS: 2.6 nM (3 of 3 replicates; controls 1 of 9)
* KSSQSTLYESRNKNSVA / SASTRES / QQYHRLPLL: 440 pM (3 of 3 replicates; controls 1 of 9)
* KSSRSVLYESRNKNSVA / SAYTRES / QQYHRLPLS: 2.5 nM (3 of 3 replicates; controls 0 of 9)
* KTSQSVLYESRNKNSVR / IASTRES / QQYHRLPLS: nd (0 of 3 replicates; controls 1 of 9)
* KSYQSVLYESRNKNSIA / GASTRES / QQYHRLPLS: nd (0 of 3 replicates; controls 0 of 9)
* KGSQSVMYESRNKNSVA / CASTRES / QQYHRLPLS: 36 nM (3 of 3 replicates; controls 2 of 9)
* KSSQSVLYESRNKNSVA / IHSTRES / GQYHRLPLS: 9.5 µM (1 of 3 replicates; controls 0 of 9)
* KHSQSVLYESRNKNSVA / MASTRES / QVYHRLPLS: 12 nM (3 of 3 replicates; controls 1 of 9)
* KSSQSVLYESNNKNSVA / CASTRES / QQYHRLPLD: 7.7 µM (2 of 3 replicates; controls 0 of 9)
* KSRQEVLYESRNKNSVA / SASTRES / QQYHRLPLS: 840 pM (3 of 3 replicates; controls 6 of 9)
* KSSQSVLYESRNKRSVA / IASTRES / QQYHALPLS: 67 µM (1 of 3 replicates; controls 1 of 9)
* SSSQSVLYESRNKNSMA / RASTRES / QQYHRLPLS: 54 nM (3 of 3 replicates; controls 8 of 9)
* KFHQSVLYESRNKNSVA / GASTRES / QQYHRLPLS: 420 pM (3 of 3 replicates; controls 2 of 9)
* KSSQSVLYESRNKNSVA / CASTAES / MQYHRLPLS: 42 µM (1 of 3 replicates; controls 1 of 9)
* KSSQSVLVESRNKNSVA / NASTRES / QQYPRLPLS: nd (0 of 3 replicates; controls 1 of 9)
* KSSQSELYESRNKNSVA / GASTRES / QQYHRPPLS: 47 µM (2 of 3 replicates; controls 4 of 9)
* KSYQSVLYESRVKNSVA / DASTRES / QQYHRLPLS: 510 pM (3 of 3 replicates; controls 1 of 9)
* KSSQSVLYSSRNKNSVA / VASTRES / QCYHRLPLS: 1.6 µM (3 of 3 replicates; controls 0 of 9)
* KSSQSVPYESRNKNSVA / KASTRES / QQYHRLPLS: 1.1 nM (3 of 3 replicates; controls 7 of 9)
* KSSQSVLQESRWKNSVA / RASTRES / QQYHRLPLS: 59 nM (3 of 3 replicates; controls 9 of 9)
* KSSQSVLYESRNKNSQA / NASTRES / QQYHRPPLS: nd (0 of 3 replicates; controls 1 of 9)
* KSIQSVLYESRNKNSVA / NASTRES / QQYHRLPLS: 440 pM (3 of 3 replicates; controls 2 of 9)
* KSSSSVLYESRNKNSVA / SASTRES / QQYHRSPLS: 4.5 nM (3 of 3 replicates; controls 0 of 9)
* KSSQSVTYESRNKNSVA / QASTRES / QQYHRLPLY: 1.5 nM (3 of 3 replicates; controls 2 of 9)
* KSSQSVLYESTNKNSVA / SASGRES / QQYHRLPLS: 6.1 nM (3 of 3 replicates; controls 5 of 9)
* KSSQSVLYESRNKNSVA / TASTEAS / QQYHRLPLS: 5.6 µM (2 of 3 replicates; controls 1 of 9)

Extract of 5 entries:

CDR-L1	CDR-L2	CDR-L3	apparent Kd	seen in	signal with controls
KSSQSVPYESRNKNSVA	KASTRES	QQYHRLPLS	1.1 nM	3 of 3	7 of 9
KSSQSELYESRNKNSVA	GASTRES	QQYHRPPLS	47 µM	2 of 3	4 of 9
KSSCSVLYESRNKNSVA	LASTRES	QQYHRLPLS	37 nM	3 of 3	1 of 9
KSMQSVLYESDNKNSVA	GASTRES	QQYHRLPLS	20 µM	1 of 3	1 of 9
KSSQSVLYESTNKNSVA	SASGRES	QQYHRLPLS	6.1 nM	3 of 3	5 of 9

Three control strains display no target. For library AAYL50, 18% of the pairings with them gave a signal, with a median of 15 µM and one signal in twenty below 970 nM, so weak values seen in few replicates may be background. For each scFv, signals with the empty controls are counted beside the result.